Source: patent US20090253669A1, “Substituted Sulfonamide Compounds” (GRUENENTHAL GmbH, priority 2008, published 2009)

By UniProt entry, the sequences of proteins in these tests, tags left out.
UniProt P35372, whole entry, looked up: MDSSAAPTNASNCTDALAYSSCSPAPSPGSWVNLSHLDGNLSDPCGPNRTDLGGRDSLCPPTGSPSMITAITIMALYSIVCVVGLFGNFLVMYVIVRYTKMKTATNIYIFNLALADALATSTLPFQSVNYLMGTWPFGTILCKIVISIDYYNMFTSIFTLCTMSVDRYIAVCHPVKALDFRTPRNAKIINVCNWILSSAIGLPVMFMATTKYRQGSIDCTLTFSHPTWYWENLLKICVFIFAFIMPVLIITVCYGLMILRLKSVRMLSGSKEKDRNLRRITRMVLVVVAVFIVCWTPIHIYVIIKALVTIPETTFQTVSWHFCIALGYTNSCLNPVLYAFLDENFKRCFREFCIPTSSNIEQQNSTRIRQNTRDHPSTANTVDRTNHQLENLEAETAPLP

These compounds were tested against human μ opiate receptor (Homo sapiens, UniProt P35372) (assay: [3H]-naloxone displacement, SPA, membranes of CHO-K1 cells). Details: 1 μM test substance; inhibition of specific binding of 1 nmol/l [3H]-naloxone.

Point of comparison: Cc1cc(C)c(S(=O)(=O)N2CCC(OCC(=O)NC3CCC(CCc4ccccc4)(N(C)C)CC3)C2)c(C)c1 (stereo not drawn) [Compound 29, N-(4-(dimethylamino)-4-phenethylcyclohexyl)-2-(1-(mesitylsulfonyl)pyrrolidin-3-yloxy)acetamide], “μ opioid receptor [1 μM] % inhibition” value 48%. Against it:
- COc1ccc(S(=O)(=O)N2CCCCC2CCOCC(=O)NC2CCC(c3ccccc3)(N(C)C)CC2)cc1 (stereo not drawn) [Compound 19, N-(4-(dimethylamino)-4-phenylcyclohexyl)-2-(2-(1-(4-methoxyphenylsulfonyl)piperidin-2-yl)ethoxy)acetamide] — higher, 96%
- CN(CC1CCC(Cc2ccccc2)(N2CCCC2)CC1)C(=O)COCC1CCc2ccccc2N1S(=O)(=O)c1ccc(Cl)c(Cl)c1 (stereo not drawn) [Compound 127, N-((4-benzyl-4-(pyrrolidin-1-yl)cyclohexyl)methyl)-2-((1-(3,4-dichlorophenylsulfonyl)-1,2,3,4-tetrahydroquinolin-2-yl)methoxy)-N-methylacetamide] — lower, 17%
- COc1cc(C)c(S(=O)(=O)N2CCCCC2COCC(=O)N2CCC(c3ccccc3)(N3CCN(C)CC3)CC2)c(C)c1 (stereo not drawn) [Compound 49, 2-((1-(4-methoxy-2,6-dimethylphenylsulfonyl)piperidin-2-yl)methoxy)-1-(4-(4-methylpiperazin-1-yl)-4-phenylpiperidin-1-yl)ethanone] — lower, 10%
- COc1cc(C)c(S(=O)(=O)N2CCCC(OCC(=O)NC3CCC(Cc4ccccc4)(N4CCOCC4)CC3)C2)c(C)c1 (stereo not drawn) [Compound 190, N-(4-benzyl-4-morpholinocyclohexyl)-2-(1-(4-methoxy-2,6-dimethylphenylsulfonyl)piperidin-3-yloxy)acetamide] — lower, 36%
- O=C(COCC1CCc2ccccc2N1S(=O)(=O)c1ccc(Cl)c(Cl)c1)N1CCC(c2ccccc2)(N2CCN(c3ccncc3)CC2)CC1 (stereo not drawn) [Compound 100, 2-((1-(3,4-dichlorophenylsulfonyl)-1,2,3,4-tetrahydroquinolin-2-yl)methoxy)-1-(4-phenyl-4-(4-(pyridin-4-yl)piperazin-1-yl)piperidin-1-yl)ethanone] — lower, 21%
- Cc1cc(S(=O)(=O)N2CCCCC2CCC(=O)N(C)CCCC2CCC(c3ccccc3)(N3CCCC3)CC2)c(C)cc1Cl (stereo not drawn) [Compound 136, 3-(1-(4-chloro-2,5-dimethylphenylsulfonyl)piperidin-2-yl)-N-methyl-N-(3-(4-phenyl-4-(pyrrolidin-1-yl)cyclohexyl)propyl)propanamide] — higher, 66%
- Cc1cc(S(=O)(=O)N2CCCCC2CCC(=O)N2CCC(c3ccccc3)(N3CCN(c4ccncc4)CC3)CC2)c(C)cc1Cl (stereo not drawn) [Compound 99, 3-(1-(4-chloro-2,5-dimethylphenylsulfonyl)piperidin-2-yl)-1-(4-phenyl-4-(4-(pyridin-4-yl)piperazin-1-yl)piperidin-1-yl)propan-1-one] — lower, 36%
- CN(CCOCC(=O)NC1CCC(Cc2ccccc2)(N2CCCC2)CC1)S(=O)(=O)c1ccc(Cl)cc1Cl (stereo not drawn) [Compound 193, N-(4-benzyl-4-(pyrrolidin-1-yl)cyclohexyl)-2-(2-(2,4-dichloro-N-methylphenylsulfonamido)ethoxy)acetamide] — higher, 56%
- COc1cc(C)c(S(=O)(=O)N2CCC(OCC(=O)N(C)CC3CCC(Cc4ccccc4)(N4CCN(C)CC4)CC3)C2)c(C)c1 (stereo not drawn) [Compound 174, N-((4-benzyl-4-(4-methylpiperazin-1-yl)cyclohexyl)methyl)-2-(1-(4-methoxy-2,6-dimethylphenylsulfonyl)pyrrolidin-3-yloxy)-N-methylacetamide] — lower, 10%
- Cc1cc(S(=O)(=O)N2CCCCC2CCC(=O)N(C)CCC2CCC(CCc3ccccc3)(N(C)C)CC2)c(C)cc1Cl (stereo not drawn) [Compound 132, 3-(1-(4-chloro-2,5-dimethylphenylsulfonyl)piperidin-2-yl)-N-(2-(4-(dimethylamino)-4-phenethylcyclohexyl)ethyl)-N-methylpropanamide] — lower, 45%
- CN(CC1CCC(CCc2ccccc2)(N2CCCC2)CC1)C(=O)CC(NS(=O)(=O)c1ccc2ccccc2c1)c1ccccc1 (stereo not drawn) [Compound 89, N-methyl-3-(naphthalene-2-sulfonamido)-N-((4-phenethyl-4-(pyrrolidin-1-yl)cyclohexyl)methyl)-3-phenylpropanamide] — lower, 47%
- Cc1cc(S(=O)(=O)N2CCCCC2CCC(=O)N(C)CCC2CCC(Cc3ccccc3)(N3CCCC3)CC2)c(C)cc1Cl (stereo not drawn) [Compound 117, N-(2-(4-benzyl-4-(pyrrolidin-1-yl)cyclohexyl)ethyl)-3-(1-(4-chloro-2,5-dimethylphenylsulfonyl)piperidin-2-yl)-N-methylpropanamide] — higher, 55%
- CN(CCC1CCC(Cc2ccccc2)(N(C)C)CC1)C(=O)COCC1CCc2ccccc2N1S(=O)(=O)c1ccc(Cl)c(Cl)c1 (stereo not drawn) [Compound 61, N-(2-(4-benzyl-4-(dimethylamino)cyclohexyl)ethyl)-2-((1-(3,4-dichlorophenylsulfonyl)-1,2,3,4-tetrahydroquinolin-2-yl)methoxy)-N-methylacetamide] — lower, 24%
- COc1cc(C)c(S(=O)(=O)N2CCCCC2COCC(=O)NC2CCC(c3ccccc3)(N3CCOCC3)CC2)c(C)c1 (stereo not drawn) [Compound 158, 2-((1-(4-methoxy-2,6-dimethylphenylsulfonyl)piperidin-2-yl)methoxy)-N-(4-morpholino-4-phenylcyclohexyl)acetamide] — higher, 63%
- COc1cc(C)c(S(=O)(=O)N2CCC(OCC(=O)NC3CCC(Cc4ccccc4)(N4CCCC4)CC3)C2)c(C)c1 (stereo not drawn) [Compound 166, N-(4-benzyl-4-(pyrrolidin-1-yl)cyclohexyl)-2-(1-(4-methoxy-2,6-dimethylphenylsulfonyl)pyrrolidin-3-yloxy)acetamide] — lower, 30%
- COc1cc(C)c(S(=O)(=O)N2CCCCC2COCC(=O)N(C)CCCC2CCC(c3ccccc3)(N3CCC3)CC2)c(C)c1 (stereo not drawn) [Compound 205, N-(3-(4-(azetidin-1-yl)-4-phenylcyclohexyl)propyl)-2-((1-(4-methoxy-2,6-dimethylphenylsulfonyl)piperidin-2-yl)methoxy)-N-methylacetamide] — higher, 77%
- COc1cc(C)c(S(=O)(=O)N2CCCC2COCC(=O)NC2CCC(c3ccccc3)(N3CCOCC3)CC2)c(C)c1 (stereo not drawn) [Compound 160, 2-((1-(4-methoxy-2,6-dimethylphenylsulfonyl)pyrrolidin-2-yl)methoxy)-N-(4-morpholino-4-phenylcyclohexyl)acetamide] — higher, 49%
- COc1cc(C)c(S(=O)(=O)N(C)CCOCC(=O)NC2CCC(c3ccccc3)(N3CCOCC3)CC2)c(C)c1 (stereo not drawn) [Compound 167, 2-(2-(4-methoxy-N,2,6-trimethylphenylsulfonamido)ethoxy)-N-(4-morpholino-4-phenylcyclohexyl)acetamide] — lower, 25%
- Cc1cc(S(=O)(=O)N2CCCCC2CCC(=O)N2CCC(c3ccccc3)(N(C)C)CC2)c(C)cc1Cl (stereo not drawn) [Compound 123, 3-(1-(4-chloro-2,5-dimethylphenylsulfonyl)piperidin-2-yl)-1-(4-(dimethylamino)-4-phenylpiperidin-1-yl)propan-1-one] — higher, 69%
- COc1cc(C)c(S(=O)(=O)N(C)CCOCC(=O)N(C)CC2CCC(c3ccccc3)(N3CCCC3)CC2)c(C)c1 (stereo not drawn) [Compound 35, 2-(2-(4-methoxy-N,2,6-trimethylphenylsulfonamido)ethoxy)-N-methyl-N-((4-phenyl-4-(pyrrolidin-1-yl)cyclohexyl)methyl)acetamide] — lower, 26%
- COc1cc(C)c(S(=O)(=O)N2CCCC(OCC(=O)NC3CCC(c4ccccc4)(N4CCCC4)CC3)C2)c(C)c1 (stereo not drawn) [Compound 176, 2-(1-(4-methoxy-2,6-dimethylphenylsulfonyl)piperidin-3-yloxy)-N-(4-phenyl-4-(pyrrolidin-1-yl)cyclohexyl)acetamide] — higher, 88%
- COc1cc(C)c(S(=O)(=O)N(C)CCOCC(=O)N2CCC(N)(c3ccccc3)CC2)c(C)c1 [Compound 196, N-(2-(2-(4-Amino-4-phenylpiperidin-1-yl)-2-oxoethoxy)ethyl)-4-methoxy-N,2,6-trimethylbenzenesulfonamide] — lower, 15%
- CN(C)C1(Cc2ccccc2)CCN(C(=O)CC2CCCCN2S(=O)(=O)c2cccc(C(F)(F)F)c2)CC1 (stereo not drawn) [Compound 97, 1-(4-benzyl-4-(dimethylamino)piperidin-1-yl)-2-(1-(3-(trifluoromethyl)phenylsulfonyl)piperidin-2-yl)ethanone] — lower, 31%
- CN(CC1CCC(Cc2ccccc2)(N2CCCC2)CC1)C(=O)CC(NS(=O)(=O)c1ccc2ccccc2c1)c1ccccc1 (stereo not drawn) [Compound 112, N-((4-benzyl-4-(pyrrolidin-1-yl)cyclohexyl)methyl)-N-methyl-3-(naphthalene-2-sulfonamido)-3-phenylpropanamide] — lower, 19%
- CN(C)C1(Cc2ccccc2)CCN(C(=O)COCC2CCc3ccccc3N2S(=O)(=O)c2ccc(Cl)c(Cl)c2)CC1 (stereo not drawn) [Compound 36, 1-(4-benzyl-4-(dimethylamino)piperidin-1-yl)-2-((1-(3,4-dichlorophenylsulfonyl)-1,2,3,4-tetrahydroquinolin-2-yl)methoxy)ethanone] — lower, 44%
- CN1CCN(C2(c3ccccc3)CCN(C(=O)CC3CCCCN3S(=O)(=O)c3cccc(C(F)(F)F)c3)CC2)CC1 (stereo not drawn) [Compound 64, 1-(4-(4-methylpiperazin-1-yl)-4-phenylpiperidin-1-yl)-2-(1-(3-(trifluoromethyl)phenylsulfonyl)piperidin-2-yl)ethanone] — lower, 12%
